Read-outs that look alike come from different tables or passages of the source.
Columns and labels:
[1] = single s.c. dose pharmacokinetics of ALT-801 or semaglutide in male C57BL6/J mice (similar test)
Description: A similar test was carried out using male C57BL6/J mice at The Jackson Laboratory-JAX West (Sacramento, Calif.). […] Both compounds were formulated at 0.02 mg/mL in 50 mM phosphate buffer, 0.05% Tween 80 at pH ˜8. The dosing volume was approximately 2 mL/kg. […] Each mouse was bled at two time points and the second time point was a terminal bleed. […] Non-compartmental PK analysis using WinNonlin was performed by using the mean concentrations at each sampling time point to report the maximum concentration (Cmax), the time Cmax was observed (Tmax), the area under the plasma concentration curve from time zero to the last time point with measurable concentration (AUC0-t), the plasma concentration-time curve from time zero to infinity (AUC0-(x)), the terminal elimination half-life (T1/2), and the mean residence time (MRT).

[2] = single-dose pharmacokinetics in male C57BL6/J mice (SC and IV); details: for AUC(0-inf) / AUC(0-t) / Cmax / Tmax / half-life / MRT: male, C57BL6/J, mouse, in vivo
Description: The in-life phase of the study was conducted at the Jackson Laboratory (Sacramento, Calif.) in sixty-seven C5713L6/J male mice (7-9 weeks of age) (diet-induced obese (DIO) JAX mice). The mice were ear notched for identification and housed in individually and positively ventilated polycarbonate cages with HEPA filtered air at a density of up to 4 mice per cage. […] The animal rooms were set to have a minimum of 15 air exchanges per hour.
Three mice in unclosed Group 1 were bled at time zero only.
For Groups 2 to 5, four mice were bled at 2 time points with the second time point being terminal. At each time point, a minimum of −200 whole blood was collected via retro-orbital bleed or cardiocentesis. The blood samples were collected in K2EDTA anticoagulant and centrifuged. The plasma (a minimum of 100 μL) was transferred to a tube and stored frozen until shipment to the bioanalytical lab for analysis by LC-MS/MS.
A 100 μL aliquot of the plasma was mixed with 10 μL of internal standard (20 μg/mL standard in phosphate buffered saline) and then 300 μL of acetonitrile. The samples were vortexed and centrifuged. The supernatant was transferred to a clean 96-well plate for LC-MS/MS analysis.

[3] = single-dose pharmacokinetics in male CRL:CD(SD) rats; type: in vivo, rat
Description: Sixteen (+2 spares) male CRL:CD(SD) rats, approximately 250-300 g upon study-initiation, were received from the standing colony maintained at Charles River Labs. Animals were maintained on standard diet (Lab Diet C504). Food consumption was monitored on Study Days 1 through 7 by weighing the food and hopper together. Food and drinking water were provided ad libitum throughout the study with the exception of the overnight fasting periods occurring prior to dosing on Study Day −1. All animals were assigned into groups upon receipt.
On Study Day 1, all animals were administered a bolus dose of group dependent test article (TA) via subcutaneous inter(mid)-scapular injection. Individual animal body weights were recorded beginning on Day −1. […] This study activity is described in more detail in Table 9.
Following administration of TA on Study Day 1, a 300 uL sample of whole blood was collected into K2EDTA tubes via the indwelling jugular vein catheter (JVC) at the timepoints listed A maximum obtainable volume of blood was collected via cardiac puncture for the final timepoint (144-hrs post dose) following CO2 euthanasia. Whole blood samples were stored on wet ice for no longer than 30 minutes prior to centrifugation at 2200×g for 10 minutes at 5° C.±3° C. The resulting plasma was then pipetted into polypropylene tubes and stored nominally in a freezer set to maintain a temperature of −80° C. until transfer to Climax Laboratories (San Jose, Calif.) for pharmacokinetic analysis.
Blood samples (˜300 μL) were collected at 2, 4, 8, 24, 48, 72, 96, 120 and 144 h post-dose (n=4 per time point) into ice cooled K2EDTA tubes and stored on ice until processing to plasma by centrifugation at 2200 rpm for 10 min at 5° C.
Analysis was carried out at Climax Laboratories (San Jose, Calif.) on an API-4000 Mass Spectrometer, ESI positive, MRM scan. Samples were loaded on a Shimadzu HPLC/CTC Autosampler with an ACE C4 column (2.1×50 mm, 5 μm). Elution was by gradient from aqueous 0.5% formic acid, 5 mM NH4OAc to 0.5% formic acid in CH3CN/H2O (9:1). Plasma samples (100 μL) were plated (96 well) and 30 μL of internal peptide standard was added (10 m/mL in PBS). A 300 μL aliquot of CH3CN was added and the sample was vortexed and centrifuged to precipitate plasma proteins. After transfer to a 96 well plate, a 40 μL sample was injected and the individual compound peaks were quantitated with standard curves. […] The quantitation limit is 1-2 ng/mL, depending on analog structure.

[4] = male C57BL6/J mice, 10 nmol/kg s.c.
[5] = male, C57BL6/J, mouse, in vivo, sc, 10 nmol/kg

CC[C@H](C)[C@H](NC(=O)[C@H](Cc1ccccc1)NC(=O)[C@H](CCC(=O)O)NC(=O)[C@@H]1CCCCNC(=O)CC[C@H](NC(=O)[C@H](CC(=O)O)NC(=O)[C@H](CC(C)C)NC(=O)[C@H](Cc2ccc(O)cc2)NC(=O)[C@H](CCCCN)NC(=O)[C@H](CO)NC(=O)[C@H](Cc2ccc(O)cc2)NC(=O)[C@H](CC(=O)O)NC(=O)[C@H](CO)NC(=O)[C@@H](NC(=O)[C@H](Cc2ccccc2)NC(=O)[C@@H](NC(=O)CNC(=O)[C@H](CCC(N)=O)NC(=O)C(C)(C)NC(=O)[C@@H](N)Cc2c[nH]cn2)[C@@H](C)O)[C@@H](C)O)C(=O)N[C@@H](CCCCNC(=O)[C@H]2O[C@@H](OCCCCCCCCCCCCCCCCCC(=O)O)[C@H](O)[C@@H](O)[C@@H]2O)C(=O)N[C@@H](C)C(=O)N[C@@H](C)C(=O)N1)C(=O)N[C@@H](CCC(N)=O)C(=O)N[C@@H](Cc1c[nH]c2ccccc12)C(=O)N[C@@H](CC(C)C)C(=O)N[C@@H](CC(C)C)C(=O)N[C@@H](CCC(N)=O)C(=O)N[C@H](C(N)=O)[C@@H](C)O [SEQ ID NO: 1]
AUC as % of semaglutide's value [1, 4]: > 86% | Cmax as % of semaglutide's value [1, 4]: 50% | MRT [1, 5]: 22 h | Tmax [1, 5]: 8 h | Cmax as % of that of semaglutide ([2]; male mice, 10 nmol/kg SC): 54% | AUC(0-inf) ([2]; iv, 10 nmol/kg): 1.53 µM·h | AUC(0-t) ([2]; iv, 10 nmol/kg): 1.5 µM·h | Cmax ([2]; iv, 10 nmol/kg): 79.5 nM | Tmax ([2]; iv, 10 nmol/kg): 8 h | half-life ([2]; iv, 10 nmol/kg): 14.7 h | MRT ([2]; iv, 10 nmol/kg, male mice, 10 nmol/kg IV): 14.8 h | AUC(0-inf) ([2]; sc, 10 nmol/kg): 0.695 µM·h | AUC(0-t) ([2]; sc, 10 nmol/kg): 0.687 µM·h | Cmax ([2]; sc, 10 nmol/kg): 23.7 nM | Tmax ([2]; sc, 10 nmol/kg): 8 h | half-life ([2]; sc, 10 nmol/kg): 15.4 h | MRT ([2]; sc, 10 nmol/kg, male mice, 10 nmol/kg SC): 22.2 h | AUC(0-inf) ([2]; sc, 30 nmol/kg): 1.95 µM·h | AUC(0-t) ([2]; sc, 30 nmol/kg): 1.93 µM·h | Cmax ([2]; sc, 30 nmol/kg): 76.9 nM | Tmax ([2]; sc, 30 nmol/kg): 8 h | half-life ([2]; sc, 30 nmol/kg): 10 h | MRT ([2]; sc, 30 nmol/kg, male mice, 30 nmol/kg SC): 18.3 h | MRT ([2]; sc, 30 nmol/kg, male mice, 10 and 30 nmol/kg): 18.3 to 22.2 h | AUC as % of that of semaglutide ([3]; 10 nmol/kg sc): 93% | Cmax as % of that of semaglutide ([3]; 10 nmol/kg sc): 54% | AUC ([3]; 10 nmol/kg sc, listed as 17): 2,350 ng·hr/mL | Cmax as % of that of semaglutide ([3]; 10 nmol/kg sc, listed as 17): 62% | MRT ([3]; 10 nmol/kg sc, listed as 17): 21 h | half-life ([3]; CRL:CD(SD) (Sprague-Dawley), rat, in vivo, iv dose of 10 nmol/kg, data not shown): 10 h | Cmax ([3]; male, CRL:CD(SD), rat, in vivo, 10 nmol/kg sc): 76 ng/mL | AUC ([3]; male, CRL:CD(SD), rat, in vivo, 10 nmol/kg sc, read-out: AUC): 2350 ng·h/mL | bioavailability ([3]; male, CRL:CD(SD), rat, in vivo, 10 nmol/kg subcutaneously vs iv): 29% | Tmax ([3]; male, CRL:CD(SD), rat, in vivo, sc, 10 nmol/kg, 10 nmol/kg sc, plasma levels still rising at 8 h, read-out: true Tmax): > 8 h | MRT ([3]; male, CRL:CD(SD), rat, in vivo, sc, 10 nmol/kg, 10 nmol/kg sc, read-out: MRT): 20.6 h | Tmax ([3]; male, CRL:CD(SD), rat, in vivo, sc, 10 nmol/kg, 10 nmol/kg sc, read-out: Tmax): 8 h
